In publication doi:10.1101/2025.02.02.636098v1 (biorxiv, 2025):

Molecular target: T1, mFFA4 (mouse FFA4) (Mus musculus, UniProt Q7TMA4)
T1 sequence (Q7TMA4 1-361): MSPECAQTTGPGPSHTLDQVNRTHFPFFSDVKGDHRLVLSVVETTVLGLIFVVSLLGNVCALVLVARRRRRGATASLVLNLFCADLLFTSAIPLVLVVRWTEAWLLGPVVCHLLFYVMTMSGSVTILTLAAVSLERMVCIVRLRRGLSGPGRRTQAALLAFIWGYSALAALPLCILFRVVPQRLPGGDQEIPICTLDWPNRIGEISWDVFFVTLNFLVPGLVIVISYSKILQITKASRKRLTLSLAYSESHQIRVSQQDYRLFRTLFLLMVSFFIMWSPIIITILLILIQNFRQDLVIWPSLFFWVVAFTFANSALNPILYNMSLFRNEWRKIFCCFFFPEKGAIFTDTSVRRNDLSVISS
Assay: Ca2+ mobilisation, Fura-2, Flp-In T-REx […]
Format: cell-based

Cc1ccc(-c2ccc(F)cc2COc2ccc(CCC(=O)O)cc2)cc1 [TUG-891, 4-[(4-Fluoro-4’-methyl[1,1’-biphenyl]-2-yl)methoxy]-benzenepropanoic acid]
EC50: 316 nM
